# The entries are a selection whose mix differs from that of the whole data set. Some tests of the compounds listed are not included; inactive here does not mean inactive elsewhere. Calls of active or inactive are those of the source. Cut-off read from the data, not from the text of the source: active = growth inhibition above about 68%; inactive = the rest.
# Assay: growth inhibition of ugtP-null S. aureus, primary screen, RN4220 ugtP deletion, OD600 (AID 1259309);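 note: plate controls were untreated wells for no effect and antibiotic for full effect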
# Conditions: 16 h, active compounds read high
row,SMILES,growth inhibition
1,O=C(NCC1(N2CCCCC2)CCCCC1)c1cccc(Cl)c1,inactive: -0.327%
2,COc1cccc(C(=O)NCC2(N3CCCCC3)CCCCC2)c1,inactive: -0.688%
3,COc1ccc(Cl)cc1C(=O)NCC1(N(C)C)CCCCC1,inactive: 18.1%
4,COc1cc(C(=O)NCC2(N(C)C)CCCCC2)c([N+](=O)[O-])cc1OC,inactive: 4.83%
5,CN(C)C1(CNC(=O)c2ccc(Br)cc2)CCCCC1,inactive: 0.511%
6,CN(C)c1cccc(C(=O)NCC2(N(C)C)CCCCC2)c1,inactive: 3.88%
7,CC(C)Oc1ccc(C(=O)NCC2(N(C)C)CCCCC2)cc1,inactive: 7.47%
8,O=C(OCCN1CCCC1)C(O)(c1ccccc1)c1ccccc1,inactive: -1.12%
9,COc1ccc(Br)c(C(=O)NCC2(N3CCCCC3)CCCCC2)c1,inactive: -2.73%
10,O=C(OC1CN2CCC1CC2)C(CO)(c1ccccc1)c1ccccc1 (stereo not drawn),inactive: 3.94%
11,Cc1ccc(C(=O)NCC2(N3CCCCC3)CCCCC2)cc1,inactive: 3.54%
12,COc1cc(SC)ccc1C(=O)NCC1(N(C)C)CCCCC1,inactive: 0.406%
13,CN1[C@@H]2CC[C@H]1CC(OC(=O)C(O)(c1ccccc1)c1ccccc1)C2 (stereo partly drawn),inactive: 0.161%
14,O=C(NCC1(N2CCCCC2)CCCCC1)c1cc([N+](=O)[O-])ccc1Cl,inactive: -1.25%
15,CCN1CCCC(OC(=O)C2(O)c3ccccc3C=Cc3ccccc32)C1 (stereo not drawn),inactive: 2.99%
16,Cc1cc(C(=O)NCC2(N3CCCCC3)CCCCC2)ccc1[N+](=O)[O-],inactive: 12.4%
17,O=C(NCC1(N2CCCCC2)CCCCC1)c1cccc(Br)c1,inactive: 11.4%
18,COc1ccc(C(=O)NCC2(N(C)C)CCCCC2)cc1,inactive: 9.15%
19,O=C(NCC1(N2CCCCC2)CCCCC1)c1cc(F)c(F)cc1Cl,inactive: 3.49%
20,CN(C)CCOC(=O)C(O)(c1ccccc1)C1CCCCC1 (stereo not drawn),inactive: -1.06%
21,Cc1ccccc1C(=O)NCC1(N2CCCCC2)CCCCC1,inactive: 4.5%
22,CN(C)c1ccc(C(=O)NCC2(N(C)C)CCCCC2)cc1,inactive: 0.374%
23,CN(C)C1CCCC1OC(=O)C(O)(c1ccccc1)c1ccccc1 (stereo not drawn),inactive: 5%

# Reference: PubChem BioAssay AID1259309 (ICCB-Longwood Screening Facility, Harvard Medical School, 2017)
